Measurements published in PMC3343186 (Nature, 2012).

System: diet-induced obese C57BL6 mice
Experiment: Diet-induced obese mice, 30-day treatment
Format: in vivo
Details: DIO C57Bl6 mice, 100mg/kg i.p. b.i.d., 30 days

CCOC(=O)N1CCC(CN(Cc2ccc(Cl)cc2)Cc2ccc([N+](=O)[O-])s2)C1 (centres unmarked) [SR9009]
adiposity (fat mass): more severe reduction in adiposity | food intake vs vehicle: no significant difference
